In patent publication US10772967B2, “Enhanced anticancer agent” (priority 2014, dated 2020):

Target: T1, GnRH-R (Rattus norvegicus, UniProt P30969)
T1 construct: from tissue; host or cells: pituitary gland of living male Sprague-Dawley rats
T1 sequence (P30969 1-327): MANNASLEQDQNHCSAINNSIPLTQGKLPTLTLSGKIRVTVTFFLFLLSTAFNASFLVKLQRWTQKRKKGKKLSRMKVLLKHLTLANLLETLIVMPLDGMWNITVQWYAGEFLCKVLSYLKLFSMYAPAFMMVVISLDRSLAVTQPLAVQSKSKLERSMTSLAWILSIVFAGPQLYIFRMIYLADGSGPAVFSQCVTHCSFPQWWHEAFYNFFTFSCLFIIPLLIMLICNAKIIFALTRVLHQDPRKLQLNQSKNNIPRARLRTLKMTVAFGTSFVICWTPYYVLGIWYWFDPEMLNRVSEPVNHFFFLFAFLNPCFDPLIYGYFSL
Assay: Efficacy of Conj4 in rats, serum testosterone by ELISA
Format: in vivo
Procedure: For control, a third group (N=3) of rats was administered only vehicle. Testosterone levels in serum were determined using ELISA and concentrations were expressed as means (±SEM).
GnRH agonists interact with GnRH-R in the pituitary gland. […] Therefore, the in vivo efficacy of Conj4 on circulating levels of testosterone was evaluated in male rats. […] In vehicle treated rats, a normal circadian rhythm of testosterone was observed (normal range of serum testosterone in rat is 0.7-5 ng/ml).
Serum samples were collected, for each rat and stored in a −20° C. until assayed for testosterone. […] Testosterone levels were expressed as means (±SEM). Significant differences between groups of animals were determined by one way analysis of variance with post hoc Dunnett's multiple comparisons test at each particular time point (GraphPad Prism).

Q: With `Cc1n[nH]c(C)c1CCCOc1cc(OCCCc2cn(CCOCCOCCOCCC(=O)NCCCCC(NC(=O)C(Cc3ccc(O)cc3)NC(=O)C(CO)NC(=O)C(Cc3c[nH]c4ccccc34)NC(=O)C(Cc3c[nH]cn3)NC(=O)C3CCC(=O)N3)C(=O)NC(CC(C)C)C(=O)NC(CCCNC(=N)N)C(=O)N3CCCC3C(=O)NCC(N)=O)nn2)cc(C(=O)O)c1` (stereo not drawn) [Conj4] as the compound, how does the “time for testosterone to return to vehicle treated levels / pretreatment range” value (male rats, single i.v. 120 picomoles/kg) read?
A: Its value is no more than 24 h.

Q: What about the “serum testosterone level at 1 h” value (male rats, single i.v. 120 picomoles/kg, 1 h after injection) of the same compound?
A: The value was 35.6 ± 3.2 ng/mL.

Q: What about the “serum testosterone level at 6 h” value (male rats, single i.v. 120 picomoles/kg, 6 h) of the same compound?
A: Its value is 25.6 ± 2.8 ng/mL.

Q: What about the “serum testosterone level at 8 h” value (male rats, single i.v. 120 picomoles/kg, 8 h) of the same compound?
A: The value was 18.9 ± 1.0 ng/mL.

Q: And the “serum testosterone level at 12 h” value (male rats, single i.v. 120 picomoles/kg, 12 h post dosing)?
A: Its value is 12.7 ± 2.3 ng/mL.

Q: And the “increase of testosterone above basal levels at 12 h” value (vs vehicle treated rats, 12 h post dosing)?
A: The value was roughly 16 fold.
